This note sets out measurements from patent US20090099157A1, “TETRAHYDRO-PYRAZOLO-PYRIDINE THIOETHER MODULATORS OF CATHEPSIN S” (priority 2007, published 2009).

Chains of the proteins cited; added tags and fusions are not shown. Residues count along the entry.
UniProt P25774, 115-331: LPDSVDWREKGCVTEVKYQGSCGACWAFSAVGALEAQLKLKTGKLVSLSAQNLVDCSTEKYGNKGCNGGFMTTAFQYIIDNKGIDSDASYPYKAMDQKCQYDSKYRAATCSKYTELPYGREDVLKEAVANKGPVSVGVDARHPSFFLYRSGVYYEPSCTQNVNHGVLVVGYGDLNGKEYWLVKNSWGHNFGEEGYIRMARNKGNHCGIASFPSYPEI

Structures are written as SMILES.

In this test the target is Recombinant human cathepsin S (CatS) (Homo sapiens, UniProt P25774). The experiment in a line: biochemical.

Consider `N#Cc1ccccc1N1CCN(C[C@H](O)Cn2nc(-c3ccc(C(F)(F)F)c(SCCN4CCC(F)CC4)c3)c3c2CCNC3)CC1` [Example 538, 2-{4-[(2S)-3-{3-[3-{[2-(4-Fluoropiperidin-1-yl)ethyl]sulfanyl}-4-(trifluoromethyl)phenyl]-4,5,6,7-tetrahydro-1H-pyrazolo[4,3-c]pyridin-1-yl}-2-hydroxypropyl]piperazin-1-yl}benzonitrile], for which the IC50 turned out to be 220 nM. In the case of `CC(=O)N1CCN(CCSc2cc(-c3nn(CC(O)CN4CCC(N5CCCC5)CC4)c4c3CN(S(C)(=O)=O)CC4)ccc2C(F)(F)F)CC1` (stereo not shown) [Example 802, 1-{3-[3-{[2-(4-Acetylpiperazin-1-yl)ethyl]sulfanyl}-4-(trifluoromethyl)phenyl]-5-(methylsulfonyl)-4,5,6,7-tetrahydro-1H-pyrazolo[4,3-c]pyridin-1-yl}-3-(4-pyrrolidin-1-ylpiperidin-1-yl)propan-2-ol], the concentration for half-maximal inhibition (IC50) came out at 1180 nM. As for `CS(=O)(=O)N1CCc2c(c(-c3ccc(C(F)(F)F)c(SCCN4CCC(F)CC4)c3)nn2C[C@@H](O)CN2CCC3CCCCC3C2)C1` (stereo partly drawn) [Example 201, (2S)-1-{3-[3-{[2-(4-Fluoropiperidin-1-yl)ethyl]sulfanyl}-4-(trifluoromethyl)phenyl]-5-(methylsulfonyl)-4,5,6,7-tetrahydro-1H-pyrazolo[4,3-c]pyridin-1-yl}-3-(octahydroisoquinolin-2(1H)-yl)propan-2-ol], the IC50 worked out at 210 nM.

Consider `CC1CCN(CCSc2cc(-c3nn(C[C@@H](O)CN4CCCC4)c4c3CN(S(C)(=O)=O)CC4)ccc2C(F)(F)F)CC1` [Example 344, (2S)-1-{3-[3-{[2-(4-Methylpiperidin-1-yl)ethyl]sulfanyl}-4-(trifluoromethyl)phenyl]-5-(methylsulfonyl)-4,5,6,7-tetrahydro-1H-pyrazolo[4,3-c]pyridin-1-yl}-3-pyrrolidin-1-ylpropan-2-ol], for which the IC50 was found to be 280 nM. As to `CS(=O)(=O)N1CCc2c(c(-c3ccc(C(F)(F)F)c(SCCNC(=O)Cc4ccccc4)c3)nn2CC(O)CN2CCC(N3CCCC3=O)CC2)C1` (stereo not shown) [Example 115, N-{2-[5-(1-{2-Hydroxy-3-[4-(2-oxo-pyrrolidin-1-yl)-piperidin-1-yl]-propyl}-5-methanesulfonyl-4,5,6,7-tetrahydro-1H-pyrazolo[4,3-c]pyridin-3-yl)-2-trifluoromethyl-phenylsulfanyl]-ethyl}-2-phenyl-acetamide], the IC50 came to 130 nM. On to `CS(=O)(=O)N1CCc2c(c(-c3ccc(C(F)(F)F)c(SCCN4CCCCC4)c3)nn2CC(O)CN2CCC(n3c(=O)[nH]c4cc(Cl)ccc43)CC2)C1` (stereo not shown) [Example 887, 5-Chloro-1-(1-{2-hydroxy-3-[5-(methylsulfonyl)-3-{3-[(2-piperidin-1-ylethyl)sulfanyl]-4-(trifluoromethyl)phenyl}-4,5,6,7-tetrahydro-1H-pyrazolo[4,3-c]pyridin-1-yl]propyl}piperidin-4-yl)-1,3-dihydro-2H-benzimidazol-2-one], for which the IC50 came out at 8.5 nM. The result for `CS(=O)(=O)N1CCc2c(c(-c3ccc(C(F)(F)F)c(SCCN4CCC(F)CC4)c3)nn2CC(O)CN2CCC(N)CC2)C1` (stereo not shown) [Example 476, 1-(4-Aminopiperidin-1-yl)-3-{3-[3-{[2-(4-fluoropiperidin-1-yl)ethyl]sulfanyl}-4-(trifluoromethyl)phenyl]-5-(methylsulfonyl)-4,5,6,7-tetrahydro-1H-pyrazolo[4,3-c]pyridin-1-yl}propan-2-ol] reads 550 nM. In the case of `CS(=O)(=O)N1CCc2c(c(-c3ccc(C(F)(F)F)c(SCCN4CCN(CCc5ccccc5)CC4)c3)nn2CCCN2CCC(N3CCCC3=O)CC2)C1` [Example 49], the IC50 worked out at 1150 nM. In the case of `CN1CCN(CC(O)Cn2nc(-c3ccc(C(F)(F)F)c(SCCN4CCOCC4)c3)c3c2CCN(S(C)(=O)=O)C3)CC1` (stereo not shown) [Example 396, 1-(4-Methylpiperazin-1-yl)-3-[5-(methylsulfonyl)-3-{3-[(2-morpholin-4-ylethyl)sulfanyl]-4-(trifluoromethyl)phenyl}-4,5,6,7-tetrahydro-1H-pyrazolo[4,3-c]pyridin-1-yl]propan-2-ol], the IC50 amounted to 3960 nM.

As to `CC(=O)NC1CCN(CCSc2cc(-c3nn(CCCN4CCC(N5CCCC5=O)CC4)c4c3CN(S(C)(=O)=O)CC4)ccc2C(F)(F)F)CC1` [Example 842, N-{1-[2-({5-[5-(Methylsulfonyl)-1-{3-[4-(2-oxopyrrolidin-1-yl)piperidin-1-yl]propyl}-4,5,6,7-tetrahydro-1H-pyrazolo[4,3-c]pyridin-3-yl]-2-(trifluoromethyl)phenyl}sulfanyl)ethyl]piperidin-4-yl}acetamide], the IC50 stood at 1280 nM. Consider `CS(=O)(=O)N1CCc2c(c(-c3ccc(C(F)(F)F)c(SCCOc4ccccc4)c3)nn2CCCN2CCOCC2)C1` [Example 130, 5-Methanesulfonyl-1-(3-morpholin-4-yl-propyl)-3-[3-(2-phenoxy-ethylsulfanyl)-4-trifluoromethyl-phenyl]-4,5,6,7-tetrahydro-1H-pyrazolo[4,3-c]pyridine], for which the IC50 was found to be 740 nM. On to `CCOC(=O)NC1CCN(CC(O)Cn2nc(-c3ccc(C(F)(F)F)c(SCCN4CCCCC4)c3)c3c2CCNC3)CC1` (stereo not shown) [Example 365, Ethyl {1-[2-hydroxy-3-(3-{3-[(2-piperidin-1-ylethyl)sulfanyl]-4-(trifluoromethyl)phenyl}-4,5,6,7-tetrahydro-1H-pyrazolo[4,3-c]pyridin-1-yl)propyl]piperidin-4-yl}carbamate], for which the IC50 was found to be 1900 nM. Consider `CS(=O)(=O)N1CCc2c(c(-c3ccc(C(F)(F)F)c(SCC(=O)N4CCCCC4)c3)nn2CC(O)CN2CCCCC2)C1` (stereo not shown) [Example 376, 1-[5-(Methylsulfonyl)-3-{3-[(2-oxo-2-piperidin-1-ylethyl)sulfanyl]-4-(trifluoromethyl)phenyl}-4,5,6,7-tetrahydro-1H-pyrazolo[4,3-c]pyridin-1-yl]-3-piperidin-1-ylpropan-2-ol], for which the IC50 was 150 nM. Then `CS(=O)(=O)N1CCc2c(c(-c3ccc(C(F)(F)F)c(SCCN4CC5CCCC5C4)c3)nn2C[C@@H](O)CN2CCOCC2)C1` (stereo partly drawn) [Example 224, (2S)-1-{3-[3-{[2-(Hexahydrocyclopenta[c]pyrrol-2(1H)-yl)ethyl]sulfanyl}-4-(trifluoromethyl)phenyl]-5-(methylsulfonyl)-4,5,6,7-tetrahydro-1H-pyrazolo[4,3-c]pyridin-1-yl}-3-morpholin-4-ylpropan-2-ol], with 380 nM; and `CS(=O)(=O)N1CCc2c(c(-c3ccc(C(F)(F)F)c(SCCN4CCCC4)c3)nn2CC(O)CN2CCCCC2)C1` (stereo not shown) [Example 184, 1-[5-(Methylsulfonyl)-3-{3-[(2-pyrrolidin-1-ylethyl)sulfanyl]-4-(trifluoromethyl)phenyl}-4,5,6,7-tetrahydro-1H-pyrazolo[4,3-c]pyridin-1-yl]-3-piperidin-1-ylpropan-2-ol], with 710 nM. As for `CC1CCN(CC(O)Cn2nc(-c3ccc(C(F)(F)F)c(SCCNS(C)(=O)=O)c3)c3c2CCN(S(C)(=O)=O)C3)CC1` (stereo not shown) [Example 430, N-(2-{[5-{1-[2-Hydroxy-3-(4-methylpiperidin-1-yl)propyl]-5-(methylsulfonyl)-4,5,6,7-tetrahydro-1H-pyrazolo[4,3-c]pyridin-3-yl}-2-(trifluoromethyl)phenyl]sulfanyl}ethyl)methanesulfonamide], the IC50 is 230 nM.

In the case of `CS(=O)(=O)N1CCc2c(c(-c3ccc(C(F)(F)F)c(SCCN4CCCC(F)(F)C4)c3)nn2C[C@@H](O)CN2CCC(c3ccccn3)CC2)C1` [Example 210, (2S)-1-{3-[3-{[2-(3,3-Difluoropiperidin-1-yl)ethyl]sulfanyl}-4-(trifluoromethyl)phenyl]-5-(methylsulfonyl)-4,5,6,7-tetrahydro-1H-pyrazolo[4,3-c]pyridin-1-yl}-3-(4-pyridin-2-ylpiperidin-1-yl)propan-2-ol], the IC50 turned out to be 10 nM. `CN(C)c1ccc2c(n1)n(C1CCN(CC(O)Cn3nc(-c4ccc(C(F)(F)F)c(SCCN5CCOCC5)c4)c4c3CCN(S(C)(=O)=O)C4)CC1)c(=O)n2C` (stereo not shown) [Example 180, 5-(Dimethylamino)-3-(1-{2-hydroxy-3-[5-(methylsulfonyl)-3-{3-[(2-morpholin-4-ylethyl)sulfanyl]-4-(trifluoromethyl)phenyl}-4,5,6,7-tetrahydro-1H-pyrazolo[4,3-c]pyridin-1-yl]propyl}piperidin-4-yl)-1-methyl-1,3-dihydro-2H-imidazo[4,5-b]pyridin-2-one]: the IC50 was 30 nM. For `CC(C)(O)C1CCN(CC(O)Cn2nc(-c3ccc(C(F)(F)F)c(SCC(=O)N4CCCC4)c3)c3c2CCNC3)CC1` (stereo not shown) [Example 319, 1-[4-(1-Hydroxy-1-methylethyl)piperidin-1-yl]-3-(3-{3-[(2-oxo-2-pyrrolidin-1-ylethyl)sulfanyl]-4-(trifluoromethyl)phenyl}-4,5,6,7-tetrahydro-1H-pyrazolo[4,3-c]pyridin-1-yl)propan-2-ol], the IC50 was 1310 nM. As to `CS(=O)(=O)N1CCc2c(c(-c3ccc(C(F)(F)F)c(SCCN4CC[C@H](F)C4)c3)nn2C[C@@H](O)CN2CCC(C3CCCCC3)CC2)C1` [Example 284], the IC50 turned out to be 70 nM. Regarding `N#Cc1ccccc1N1CCN(CC(O)Cn2nc(-c3ccc(C(F)(F)F)c(SCC(=O)N4CCOCC4)c3)c3c2CCN(C(=O)CO)C3)CC1` (stereo not shown) [Example 748, 2-(4-{2-Hydroxy-3-[5-(hydroxyacetyl)-3-{3-[(2-morpholin-4-yl-2-oxoethyl)sulfanyl]-4-(trifluoromethyl)phenyl}-4,5,6,7-tetrahydro-1H-pyrazolo[4,3-c]pyridin-1-yl]propyl}piperazin-1-yl)benzonitrile], the IC50 turned out to be 10 nM. In the case of `CC(C)(C)C1CCN(CC(O)Cn2nc(-c3ccc(C(F)(F)F)c(SCCN4CCCC4)c3)c3c2CCN(S(C)(=O)=O)C3)CC1` (stereo not shown) [Example 539, 1-[4-(1,1-Dimethylethyl)piperidin-1-yl]-3-[5-(methylsulfonyl)-3-{3-[(2-pyrrolidin-1-ylethyl)sulfanyl]-4-(trifluoromethyl)phenyl}-4,5,6,7-tetrahydro-1H-pyrazolo[4,3-c]pyridin-1-yl]propan-2-ol], the IC50 turned out to be 160 nM.

In general, IC50 refers to the concentration that inhibits the measured activity by half.
